Measurements reported in patent US8168233B2 (Amylin Pharmaceuticals, Inc., priority 2002, dated 2012).

Key:
[1] = Solubility and stability characteristics compared to human amylin; type: physicochemical
[2] = Amylin activity in vivo in treated test animals (hyperlactemia followed by hyperglycemia); details: e.g., provoking marked hyperlactemia followed by hyperglycemia
[3] = Adsorption onto glass container in liquid form; type: physicochemical

Row | solubility and stability characteristics [1] | SMILES | amylin activity in vivo [2] | tendency to adsorb onto the glass in a glass container [3]
1 | more desirable | CC[C@H](C)[C@H](NC(=O)[C@@H]1CCCN1C(=O)CNC(=O)[C@H](Cc1ccccc1)NC(=O)[C@H](CC(N)=O)NC(=O)[C@H](CC(N)=O)NC(=O)[C@H](CO)NC(=O)[C@H](CO)NC(=O)[C@H](CCCNC(=N)N)NC(=O)[C@@H](NC(=O)[C@H](CC(C)C)NC(=O)[C@H](Cc1ccccc1)NC(=O)[C@H](CC(N)=O)NC(=O)[C@H](C)NC(=O)[C@H](CC(C)C)NC(=O)[C@H](CCCNC(=N)N)NC(=O)[C@H](CCC(N)=O)NC(=O)[C@@H](NC(=O)[C@H](C)NC(=O)[C@@H]1CSSC[C@H](NC(=O)[C@@H](N)CCCCN)C(=O)N[C@@H](CC(N)=O)C(=O)N[C@@H]([C@@H](C)O)C(=O)N[C@@H](C)C(=O)N[C@@H]([C@@H](C)O)C(=O)N1)[C@@H](C)O)C(C)C)C(=O)N[C@@H](CC(C)C)C(=O)N1CCC[C@H]1C(=O)N[C@@H](CO)C(=O)N[C@H](C(=O)N[C@@H](CC(N)=O)C(=O)N[C@H](C(=O)NCC(=O)N[C@@H](CO)C(=O)N[C@@H](CC(N)=O)C(=O)N[C@H](C(=O)N[C@@H](Cc1ccc(O)cc1)C(N)=O)[C@@H](C)O)C(C)C)[C@@H](C)O [^18Arg^25,28Pro-h-amylin] |  | 
2 | more desirable | CC[C@H](C)[C@H](NC(=O)[C@@H]1CCCN1C(=O)CNC(=O)[C@H](Cc1ccccc1)NC(=O)[C@H](CC(N)=O)NC(=O)[C@H](CC(N)=O)NC(=O)[C@H](CO)NC(=O)[C@H](CO)NC(=O)[C@H](Cc1c[nH]cn1)NC(=O)[C@@H](NC(=O)[C@H](CC(C)C)NC(=O)[C@H](Cc1ccccc1)NC(=O)[C@H](CC(N)=O)NC(=O)[C@H](C)NC(=O)[C@H](CC(C)C)NC(=O)[C@H](CCCNC(=N)N)NC(=O)[C@H](CCC(N)=O)NC(=O)[C@@H](NC(=O)[C@H](C)NC(=O)[C@@H]1CSSC[C@H](NC(=O)[C@@H](N)CCCCN)C(=O)N[C@@H](CC(N)=O)C(=O)N[C@@H]([C@@H](C)O)C(=O)N[C@@H](C)C(=O)N[C@@H]([C@@H](C)O)C(=O)N1)[C@@H](C)O)C(C)C)C(=O)N[C@@H](CC(C)C)C(=O)N1CCC[C@H]1C(=O)N1CCC[C@H]1C(=O)N[C@H](C(=O)N[C@@H](CC(N)=O)C(=O)N[C@H](C(=O)NCC(=O)N[C@@H](CO)C(=O)N[C@@H](CC(N)=O)C(=O)N[C@H](C(=O)N[C@@H](Cc1ccc(O)cc1)C(N)=O)[C@@H](C)O)C(C)C)[C@@H](C)O [^25,28,29Pro-h-amylin] | show amylin activity in vivo | does not have a tendency to adsorb onto the glass
3 | more desirable | CC(C)C[C@H](NC(=O)[C@H](CCCNC(=N)N)NC(=O)[C@H](CCC(N)=O)NC(=O)[C@@H](NC(=O)[C@H](C)NC(=O)[C@@H]1CSSC[C@H](NC(=O)[C@@H](N)CCCCN)C(=O)N[C@@H](CC(N)=O)C(=O)N[C@@H]([C@@H](C)O)C(=O)N[C@@H](C)C(=O)N[C@@H]([C@@H](C)O)C(=O)N1)[C@@H](C)O)C(=O)N[C@@H](C)C(=O)N[C@@H](CC(N)=O)C(=O)N[C@@H](Cc1ccccc1)C(=O)N[C@@H](CC(C)C)C(=O)N[C@H](C(=O)N[C@@H](Cc1c[nH]cn1)C(=O)N[C@@H](CO)C(=O)N[C@@H](CO)C(=O)N[C@@H](CC(N)=O)C(=O)N[C@@H](CC(N)=O)C(=O)N[C@@H](Cc1ccccc1)C(=O)NCC(=O)N1CCC[C@H]1C(=O)N[C@H](C(=O)N[C@@H](CC(C)C)C(=O)N1CCC[C@H]1C(=O)N1CCC[C@H]1C(=O)N[C@H](C(=O)N[C@@H](CC(N)=O)C(=O)N[C@H](C(=O)NCC(=O)N[C@@H](CO)C(=O)N[C@@H](CC(N)=O)C(=O)N[C@H](C(=O)N[C@@H](Cc1ccc(O)cc1)C(N)=O)[C@@H](C)O)C(C)C)[C@@H](C)O)C(C)C)C(C)C [^25Pro^26Val^28,29Pro-h-amylin] |  | 
